Patent publication US8828966B2, “Method for treatment of macular degeneration by modulating P2Y12 or P2X7 receptors” (priority 2006, dated 2014)

Assays:
A2B receptor = biological target: T1, A2B receptor (Homo sapiens, UniProt P29275); settings: read-out: IC50 for the A2B receptor; antagonist; cited from earlier work
T1 sequence (P29275 1-332): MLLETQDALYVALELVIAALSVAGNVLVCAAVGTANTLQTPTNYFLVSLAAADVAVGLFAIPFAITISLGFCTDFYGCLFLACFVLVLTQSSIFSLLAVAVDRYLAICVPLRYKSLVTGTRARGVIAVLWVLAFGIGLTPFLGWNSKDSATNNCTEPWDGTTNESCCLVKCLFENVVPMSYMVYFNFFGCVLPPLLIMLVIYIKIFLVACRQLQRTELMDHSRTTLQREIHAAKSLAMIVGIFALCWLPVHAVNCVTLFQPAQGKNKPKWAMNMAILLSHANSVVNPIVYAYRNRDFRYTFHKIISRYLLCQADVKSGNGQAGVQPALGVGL

ARPE-19 cells = assay: Clearance (degradation) of calcein-labeled photoreceptor outer segments; type: cell-based, human; settings: after 24 hrs
Procedure: Outer Segment Degradation: Bovine retinas were homogenized in 20% sucrose with 130 mM NaCl, 20 mM Tris-HCl, 10 mM glucose, 5 mM taurine and 2 mM MgC12 (pH 7.20). The homogenate was placed in ultracentrifuge tubes with 20%, 27%, 33%, 41%, 50% and 60% sucrose, respectively, and centrifuged for 70 minutes at 28,000 rpm on a SW28 rotor (4° C.). The supernatant was filtered, diluted in 0.02M Tris-HCl buffer (pH 7.2) and centrifuged at 13,000×g for 10 minutes (4° C.). The pellet was resuspended in […], 0.1 mM NaCl and 2.5% sucrose. Outer segments were loaded with 5 μM calcein-AM in PBS for 10 minutes, and spun 2× at 14,000 rpm to wash. Outer segments were then diluted 1:100 in growth medium and added to ARPE-19 cells in 96-well plates. After 2 hours, cells were washed vigorously 3×, and incubated with growth medium for 3 hours, after which 30 μM tamoxifen was added with acidifying drugs. After 24 hours, wells were washed 3×, and the fluorescence was read with a plate scanner at 485 nm to quantify the signal.
Isolated bovine outer segments loaded with calcein were supplied to ARPE-19 cells in 96-well plates for 2 hrs, washed 3× and maintained in control medium for an additional 3 hr (see Methods). […] Drugs were given to cells both with, and without, tamoxifen to determine whether baseline levels of degradation were also altered. […]

| Structure (SMILES) | IC50 (A2B receptor) | clearance of calcein-labeled outer segments, alkalinizing agent alone (ARPE-19 cells) |
| --- | --- | --- |
| CCCn1c(=O)c2[nH]c(-c3ccc(OCC(=O)Nc4ccc(C#N)cc4)cc3)nc2n(CCC)c1=O [MRS1754] | 2 nM | – |
| CCN(CC)CCCC(C)Nc1ccnc2cc(Cl)ccc12 (centres unmarked) [chloroquine] | – | slowed clearance of outer segments |
